Patent publication US11583516B2, “Dash inhibitors, and uses related thereto” (Trustees of Tufts College, priority 2016, dated 2023)

What was measured:
Assay type in all cases: cell-based
RAW 264.7 WT cells = experiment: Pyroptosis IC50 in cells
NB4 cells = experiment: Cell line drug sensitivity (CellTiter-Glo); conditions: NB4, AML/APL M3; 48 h
Procedure: (§1) SET-2, RS4;11, and SKM-1 cells were purchased from DSMZ. HL-60, MV4;11, OCI-AML2, NB4, MOLM-13, NOMO-1, DAOY, HEL, IMR-5, K562, Kasumi-1, ONS-76, RDES-1, and TC-71 cells were a gift from Alex Kentsis and verified using STR genotyping (Genetica). […] MCF-7, Jurkat, THP-1, U937, HL-60, MV4;11, OCI-AML2, NB4, MOLM-13, NOMO-1, HEL, K562, SET-2, RS4;11, SKM-1 and Kasumi-1 were grown in RPMI-1640 medium with 10% FBS. All cells were grown at 37° C. in a 5% CO2 incubator. Cell lines were tested for mycoplasma using the MycoAlert Mycoplasma Detection Kit (Lonza).
(§2) Cells were plated (2000 cells/well) in white, 384-well clear bottom plates using an EL406 Microplate Washer/Dispenser (BioTek) in 25 μL final volume of media. Compounds were added using a pintool (CyBio) and cells were incubated for 48 h at 37° C. Assay plates were then removed from the incubator and allowed to equilibrate to room temperature on the bench top before addition of 10 μL of CellTiter-Glo reagent (Promega) according to the manufacturer's instructions. Assay plates were shaken on an orbital shaker for 2 minutes and incubated at room temperature on the bench top for 10 minutes. Luminescence was then read using a Cytation 5 Cell Imaging Multi-Mode Reader (BioTek). (FIG. 6)

MV4;11 cells = experiment: Cell line drug sensitivity (CellTiter-Glo); conditions: MV4;11, AML M5; 48 h
Procedure: as §1, §2

Measured: IC50

CC(C)(C)[C@H](N)C(=O)N1CCC[C@H]1B(O)O [ARI-4175, t-butylglycine-boroProline]
14 nM: all assays above
